Most compounds without a hit are left out; they make up all but 0.78% or so of the library.
TCR activator: T cell receptor activation; Potency, µM (titrated, usually from 9.22 µM), actives largely listed as activators; primary human leukocytes, anti-CD3, IL-2 HTRF, 48 h; 330,000 tested, under 10 active
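Activity was scored as IL-2 release from primary human leukocytes given only a TCR signal (a-CD3 beads) plus compound for 48 hr. Detection used a two-antibody HTRF format read at 665nm.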
PINK1 modulator: PINK1 expression modulation; 410,000 tested, 0.2% active; PINK1 immunofluorescence, high-content cytometry, 24 h; Potency, µM (doses to about 76.6 µM), usual class: activators; active = well fitted activation curve with a large enough effect; inconclusive = small, poorly fitted or top-dose-only effect; cell line not stated here; also: nearly all actives have a fitted effect of over 65% in size
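Decision-based qHTS: stable cells, 24 h exposure to five compound concentrations, CCCP as control. Fixed cells stained for PINK1 plus nuclear, mitochondrial and cell markers, cytometer read.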
RXFP1 antagonist: RXFP1 (human) relaxin receptor antagonism | activity change, negative = inhibition, % at 57.5 µM | AID 1259400 | HEK293-RXFP1, relaxin-stimulated cAMP HTRF, 30 min; hits give low values | Q9HBX9 | 350,000 tested, 0.59% active;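 active = activity change of -60% or lower, but not beyond a set lower limit; inconclusive = change between -60% and -40%, or beyond the set limit; inactive = change above -40%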
IL2 activator: IL-2 activation | IL-2 activation reporter assay, cell-based qHTS; stimulated with anti-CD3/CD4/CD28 beads; in transgenic mouse T cells | activation, % (series mostly up to about 46 µM) | 360,000 tested, 0.065% active | AID 652025; in the data active = activation above about 50%; inconclusive = mostly about 30% to 49%
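Screening format: compound pinned onto unstimulated transgenic mouse T cells, 60 min incubation, then anti-CD3/anti-CD4/anti-CD28 bead stimulation for 18 hours at 37 degrees C, followed by EGFP and DsRed detection.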
RXFP1 ag: RXFP1 (human) receptor agonism. Potency, µM (highest dose often 57.5 µM), most hits filed as activators. Q9HBX9. HEK293T-RXFP1 cAMP TR-FRET, 30 min; response scale: percent of porcine relaxin response, buffer zero. AID 2676. 370,000 tested, 0.3% active; also: nearly all actives have a fitted effect of over 60% in size
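cAMP rise read by TR-FRET after 30 min, 37C compound exposure (up to 58 uM) in RXFP1-transfected HEK293 cells with Ro 20174 present. EC50 from Hill-equation fits, with 29 nM porcine relaxin as 100% and buffer as basal.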
miR-21 FLuc: miR-21 reporter, rising signal | HeLa miR-21 FLuc reporter, luciferase, 48 h | Potency, µM (top dose mostly 38.3 µM) | 340,000 tested, under 10 active | AID 2288; active = well fitted rising curve with a large enough effect; inconclusive = small, poorly fitted or top-dose-only effect; inactive = no such curve, though single readings can be large or run the other way;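 further: miR-21 action dims this reporter so a rising signal means less miR-21 action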
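HeLa miR-21-FLuc reporter line, endogenous miR-21; 2000 cells/well in DMEM/10% FBS; compound titration up to ~40uM final, 48 h, 37 degree Celsius; luciferase detection reagent, 15 min lysis, CCD luminescence.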
Hits are given with their value; n = inactive; u = inconclusive; x = no result given. Unless noted, calls follow the shape of the dose curve; as a rule, active = well fitted curve in the direction sought with a large enough effect; inconclusive = small, poorly fitted or top-dose-only effect, or another doubt; inactive = no such curve, though single readings can be large; an effect the other way counts as inactive or inconclusive.

SMILES | TCR activator | PINK1 modulator | RXFP1 antagonist | IL2 activator | RXFP1 ag | miR-21 FLuc
O=C(Nc1ccc(OC(F)(F)F)cc1)Nc1cccc([N+](=O)[O-])c1 | n | u | -74.5 | n | n | n
Cc1ccc(NC(=O)Nc2cccc([N+](=O)[O-])c2)cc1F | n | u | n | n | n | n
O=C(Nc1cccc([N+](=O)[O-])c1)c1ccncc1 | n | n | n | n | n | n
COC(=O)[C@@H]1CCCN1C(=O)c1c(OC)cc(=O)n2c1CCN(Cc1ccc3cccnc3c1)CC2 | x | n | x | x | x | x
CSc1ccc(CN2CCN(C(=O)CC(C)C)CC2)cc1 | n | n | -63.3 | n | n | n
O=C(Nc1ccc(F)cc1)Nc1ccc2snnc2c1 | x | 31.6µM | x | x | n | n
CCCCCCCC/C=C/C(=O)O | x | x | n | x | x | x
CC(NCC(=O)NC(=O)NC1CCCC1)c1ccc(Cl)cc1Cl (stereo not given) | n | n | -63.3 | n | n | x
O=C(COC(=O)c1ccc(Cl)cc1)NC(=O)NC1CCCC1 | n | u | n | n | n | x
Cc1ccc(C(=O)NCC2CCCN2S(=O)(=O)c2cccs2)cc1C (stereo not given) | n | n | n | n | n | x
COc1cc(C(=O)NCC2CCCN2S(=O)(=O)c2cccs2)cc(OC)c1OC (stereo not given) | n | n | -82.0 | n | n | x
O=C1NC(c2ccccc2)(c2ccccc2)C(=O)N1COP(=O)(O)O | x | x | n | x | x | x
CC[n+]1c(/C=C/N(C)c2ccccc2)n(-c2ccccc2)c2ccc(-c3nc4ccccc4s3)cc21 | n | n | -60.5 | n | n | u
Nc1ccc2cc3[nH]c4cc(N)ccc4c3nc2c1 | n | n | n | 424.3 | x | x
Nc1ccc(-c2nc3ccc(N)cc3[nH]2)cc1 | n | n | n | n | u | n
Cc1cccc2c1NC1(CCCC1)CC2C (stereo not given) | n | 44.7µM | n | n | n | n
O=C(c1nnsc1S(=O)c1ccc(Cl)cc1)N1CCOCC1 (stereo not given) | n | n | n | n | n | u
O=C(Nc1ccccc1)c1nnsc1S(=O)c1ccc(Cl)cc1 (stereo not given) | n | n | -104.6 | n | n | u
COc1ccc(Cc2c(-c3ccc(C)cc3)nc3ccc(Cl)cn23)c(C)c1 | x | 31.6µM | x | n | x | x
COC(=O)c1ccc2nc(-c3ccc(Cl)cc3)c(Cc3ccc(OC)cc3C)n2c1 | x | n | x | n | x | x
CC(C)Cc1nc2cc(NS(=O)(=O)N(C)C)cc(C(=O)N3CCOCC3)c2n1C | x | n | x | x | x | x
O=C(CCCn1c(=S)[nH]c2cc3c(cc2c1=O)OCO3)N1CCN(c2ccc(F)cc2)CC1 | n | n | n | n | n | n
COc1ccccc1N1CCN(C(=O)CCCCCn2c(=S)[nH]c3cc4c(cc3c2=O)OCO4)CC1 | x | n | -78.2 | n | x | x
Cc1ccc(C)c(N2CCN(C(=O)CCCn3c(=S)[nH]c4cc5c(cc4c3=O)OCO5)CC2)c1 | n | x | -101.6 | n | n | n
COc1ccccc1N1CCN(C(=O)CCCn2c(=S)[nH]c3ccccc3c2=O)CC1 | x | n | -65.2 | n | x | x
SMILES | TCR activator | PINK1 modulator | RXFP1 antagonist | IL2 activator | RXFP1 ag | miR-21 FLuc
O=C(CCCn1c(=S)[nH]c2cc3c(cc2c1=O)OCO3)N1CCN(c2ccccc2F)CC1 | n | n | u | n | n | n
COc1ccc2[nH]c(CN3CCC(CO)(CCOc4ccccc4)CC3)c(C)c2c1 | n | n | -70.5 | n | n | n
COc1ccc(CN2CCC(CO)(CCOc3ccccc3)CC2)c(OC)c1C | n | n | n | n | n | n
CCc1ccc(NC(=O)CSC2=Nc3ccccc3C3=NC(CC(=O)NC4CCCCC4)C(=O)N23)cc1 (stereo not given) | x | n | -70.3 | x | n | n
CO[C@H]1[C@H](NC(=O)c2cccs2)c2ccccc2C12CCN(Cc1cccn1-c1cccnc1)CC2 | x | n | x | x | x | x
COC(=O)c1cc(CNC(=O)c2ccc3ccccc3n2)cc(NC(=O)c2cccc(OC)c2)c1 | x | n | x | x | x | x
O=C(C=Cc1ccccc1)c1ccc([N+](=O)[O-])cc1 | n | n | n | n | x | x
O=[N+]([O-])c1ccc(C=CC=Cc2ccccc2)cc1 | x | 31.6µM | n | n | x | x
CCCCNC(=O)c1cnn2c(C)c(Cc3c(C)cc(C)cc3C)c(C)nc12 | x | u | -60.9 | x | n | u
COCC(=O)Nc1cc(C(=O)N2CCN(c3ccc(Cl)cn3)CC2)c2c(c1)nc(C1CCC1)n2C | x | n | x | x | x | x
CN(C)c1ccc(/C=N/NC(=O)COc2ccccc2)cc1 | n | n | n | n | n | n
Cc1cccc(OCC(=O)N/N=C/c2ccc(N(C)C)cc2)c1 | n | n | -101.6 | n | n | n
Cc1ccccc1C(=O)NC(C)c1nnc2n1CCN(Cc1ccnc3ccccc13)CC2 (stereo not given) | x | n | x | x | x | x
CC1(C)CC(=O)C(C(C2=C(O)CC(C)(C)CC2=O)c2ccc(Br)s2)C(=O)C1 (stereo not given) | n | n | -99.0 | n | n | n
O=C(COc1ncnc2scc(-c3ccccc3)c12)NCCN1C(=O)CSC1=O | x | x | x | x | 11.2µM | n
O=C(CSc1nc(-c2ccccc2)cs1)NCCN1C(=O)CSC1=O | x | n | n | n | n | n
COc1cccc(CNC(=O)c2oc3c(c2C)-c2nn(Cc4cccc(Cl)c4)cc2CC3)c1 | x | n | -117.7 | x | n | n
COc1cccc(CNC(=O)c2oc3c(c2C)-c2nn(Cc4cccc(Cl)c4)cc2CC3)c1OC | x | n | u | x | n | n
CCC1C(=O)NCCN1Cc1ccc2c(c1)CN(Cc1cccn1-c1ccc(Cl)cn1)CCO2 (stereo not given) | x | n | x | x | x | x
Cc1cc(C)n(-c2nc(SCCN(C)C)c3c4c(sc3n2)CCCC4)n1 | n | n | -60.9 | n | n | n
CCC(O)CNc1nc(-n2nc(C)cc2C)nc2sc3c(c12)CCCC3 (stereo not given) | x | x | x | x | n | n
Cc1cccc(OC(C)C(=O)N2CCC(c3nc4ccccc4o3)CC2)c1C (stereo not given) | x | n | -63.1 | x | n | n
Cc1ccc(Oc2cc([N+](=O)[O-])cc3c2C(=O)Nc2ccccc2O3)cc1 | n | n | n | 72.3 | n | n
O=C1Nc2ccccc2Oc2cc(Oc3ccc(Cl)cc3)ccc21 | x | n | n | x | n | n
CC(=O)O[C@@H]1CC2C3CCc4cc(OC(=O)c5ccccc5)ccc4C3CCC2(C)[C@H]1OC(C)=O (stereo not given in full) | x | x | n | x | x | x
O=C(NCC1CCC2(CCN(Cc3cccc(-c4ccco4)c3)CC2)O1)c1ccccc1 (stereo not given) | x | n | x | x | x | x
Cc1ccc2[nH]c3c(=S)nc[nH]c3c2c1 | n | n | n | n | 3.55µM | n
Cc1ccc2[nH]c3c(=O)n(N)c(C)nc3c2c1 | n | n | n | n | n | n
